Measured values as given in ChEMBL document CHEMBL1135387, “Synthesis and kinase inhibitory activity of 3'-(S)-epi-K-252a” (Bioorg Med Chem Lett, 2002).

By UniProt entry, the sequences of proteins in these tests, tags left out.
UniProt Q15746, whole entry: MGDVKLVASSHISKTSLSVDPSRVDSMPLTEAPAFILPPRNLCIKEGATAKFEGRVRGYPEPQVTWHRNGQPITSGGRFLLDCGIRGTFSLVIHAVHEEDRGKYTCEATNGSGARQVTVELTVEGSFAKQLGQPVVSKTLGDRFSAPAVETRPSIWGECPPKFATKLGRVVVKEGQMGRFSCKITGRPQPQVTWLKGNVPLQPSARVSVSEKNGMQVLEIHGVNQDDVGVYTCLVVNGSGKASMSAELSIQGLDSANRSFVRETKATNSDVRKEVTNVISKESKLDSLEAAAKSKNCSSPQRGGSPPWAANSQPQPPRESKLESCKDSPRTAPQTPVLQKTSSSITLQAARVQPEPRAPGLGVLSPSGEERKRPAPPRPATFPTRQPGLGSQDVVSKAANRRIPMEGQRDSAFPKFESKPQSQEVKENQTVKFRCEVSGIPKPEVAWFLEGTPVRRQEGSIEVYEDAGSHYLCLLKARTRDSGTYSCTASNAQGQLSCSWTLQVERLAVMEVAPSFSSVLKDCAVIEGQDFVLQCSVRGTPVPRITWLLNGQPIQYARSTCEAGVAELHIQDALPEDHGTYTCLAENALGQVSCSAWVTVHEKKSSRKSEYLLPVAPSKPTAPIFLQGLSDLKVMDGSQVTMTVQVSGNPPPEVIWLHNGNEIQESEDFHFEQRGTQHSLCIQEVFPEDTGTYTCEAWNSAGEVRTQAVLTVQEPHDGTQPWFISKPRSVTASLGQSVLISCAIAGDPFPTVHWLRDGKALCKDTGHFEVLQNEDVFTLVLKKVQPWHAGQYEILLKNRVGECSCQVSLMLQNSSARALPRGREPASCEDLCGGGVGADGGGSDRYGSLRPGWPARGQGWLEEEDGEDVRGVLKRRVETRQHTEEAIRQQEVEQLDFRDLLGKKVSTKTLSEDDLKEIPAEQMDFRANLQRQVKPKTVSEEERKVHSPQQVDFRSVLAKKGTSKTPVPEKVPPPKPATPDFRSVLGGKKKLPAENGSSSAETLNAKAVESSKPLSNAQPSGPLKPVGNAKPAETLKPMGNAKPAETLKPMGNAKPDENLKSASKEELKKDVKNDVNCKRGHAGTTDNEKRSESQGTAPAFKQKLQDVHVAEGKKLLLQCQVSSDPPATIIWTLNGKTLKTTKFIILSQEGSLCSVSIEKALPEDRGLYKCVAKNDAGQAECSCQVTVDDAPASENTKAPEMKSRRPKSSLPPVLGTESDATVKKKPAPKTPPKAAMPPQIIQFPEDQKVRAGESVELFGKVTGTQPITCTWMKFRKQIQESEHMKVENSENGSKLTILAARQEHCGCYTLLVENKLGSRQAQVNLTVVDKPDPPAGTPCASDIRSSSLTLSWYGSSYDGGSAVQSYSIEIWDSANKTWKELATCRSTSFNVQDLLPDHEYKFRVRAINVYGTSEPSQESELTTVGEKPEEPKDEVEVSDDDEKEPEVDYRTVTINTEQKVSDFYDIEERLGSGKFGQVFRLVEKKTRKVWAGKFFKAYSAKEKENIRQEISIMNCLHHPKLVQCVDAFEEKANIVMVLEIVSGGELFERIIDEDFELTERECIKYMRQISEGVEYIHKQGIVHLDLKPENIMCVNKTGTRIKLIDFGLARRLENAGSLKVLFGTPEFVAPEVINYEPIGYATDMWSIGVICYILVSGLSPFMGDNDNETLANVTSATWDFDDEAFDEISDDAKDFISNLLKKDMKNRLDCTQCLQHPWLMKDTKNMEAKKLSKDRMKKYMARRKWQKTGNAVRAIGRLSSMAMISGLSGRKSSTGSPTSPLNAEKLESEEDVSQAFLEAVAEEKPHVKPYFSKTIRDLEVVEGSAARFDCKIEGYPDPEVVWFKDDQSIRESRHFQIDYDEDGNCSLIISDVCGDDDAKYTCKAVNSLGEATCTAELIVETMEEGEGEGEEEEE

Target: Myosin light chain kinase, smooth muscle (Homo sapiens, UniProt Q15746)
Experiment: Inhibition of Myosin light chain kinase 1 (MLCK1)

**Q.** How did the IC50 turn out when COC(=O)[C@]1(O)C[C@H]2O[C@]1(C)n1c3ccccc3c3c4c(c5c6ccccc6n2c5c31)C(=O)NC4 was run?
**A.** 25 nM
